Source: ChEMBL document CHEMBL1151780, “Correlation of inhibitor effects on enzyme activity and thermal stability for the integral membrane protein fatty acid amide hydrolase” (Bioorg Med Chem Lett, 2008)

Protein sequences, listed by entry. Tags and fused reporters are not part of them.
UniProt O00519, whole entry: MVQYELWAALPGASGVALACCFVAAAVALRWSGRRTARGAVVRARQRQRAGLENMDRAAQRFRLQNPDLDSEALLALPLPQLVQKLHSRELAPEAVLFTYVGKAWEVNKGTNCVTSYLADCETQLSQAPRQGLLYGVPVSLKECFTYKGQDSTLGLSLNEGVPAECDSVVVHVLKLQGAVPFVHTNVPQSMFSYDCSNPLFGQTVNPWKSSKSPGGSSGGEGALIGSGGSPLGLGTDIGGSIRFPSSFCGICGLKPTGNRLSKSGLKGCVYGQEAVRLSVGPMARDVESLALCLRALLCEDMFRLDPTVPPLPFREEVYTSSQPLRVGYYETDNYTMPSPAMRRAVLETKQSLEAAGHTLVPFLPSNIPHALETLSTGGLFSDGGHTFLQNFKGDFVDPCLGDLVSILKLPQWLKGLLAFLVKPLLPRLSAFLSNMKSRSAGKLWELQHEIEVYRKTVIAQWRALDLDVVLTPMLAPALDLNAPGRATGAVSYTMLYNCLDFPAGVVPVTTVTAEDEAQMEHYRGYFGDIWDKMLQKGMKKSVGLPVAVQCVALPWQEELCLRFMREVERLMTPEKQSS

Biological target: Fatty-acid amide hydrolase 1 (Homo sapiens, UniProt O00519)

SMILES | Tm
O=C(O)c1cccc(-c2cnc(C(=O)CCc3ccc(-c4ccccc4)cc3)o2)n1 | 63.6 °C
O=C(O)c1cccc(-c2cnc(C(=O)CCCCCCc3ccccc3)o2)n1 | 64.3 °C
